Test results from patent publication US9062124B2, “GIP-based mixed agonists for treatment of metabolic disorders and obesity” (priority 2008, dated 2015).

Amino acid sequences for entries named in this document (tags omitted). Residues count along the entry.
UniProt P43220, 24-463, species assumed: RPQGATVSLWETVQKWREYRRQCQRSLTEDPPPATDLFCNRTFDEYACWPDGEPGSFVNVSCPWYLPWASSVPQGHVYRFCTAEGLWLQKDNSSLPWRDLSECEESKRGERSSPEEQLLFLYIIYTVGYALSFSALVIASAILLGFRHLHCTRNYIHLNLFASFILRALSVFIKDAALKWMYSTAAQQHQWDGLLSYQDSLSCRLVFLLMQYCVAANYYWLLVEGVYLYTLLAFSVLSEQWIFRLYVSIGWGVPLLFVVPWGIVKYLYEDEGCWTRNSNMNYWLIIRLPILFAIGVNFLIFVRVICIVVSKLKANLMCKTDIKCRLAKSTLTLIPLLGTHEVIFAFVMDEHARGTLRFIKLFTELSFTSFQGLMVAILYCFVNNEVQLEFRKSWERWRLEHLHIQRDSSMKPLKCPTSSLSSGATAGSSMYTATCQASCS
UniProt P47871, 26-477: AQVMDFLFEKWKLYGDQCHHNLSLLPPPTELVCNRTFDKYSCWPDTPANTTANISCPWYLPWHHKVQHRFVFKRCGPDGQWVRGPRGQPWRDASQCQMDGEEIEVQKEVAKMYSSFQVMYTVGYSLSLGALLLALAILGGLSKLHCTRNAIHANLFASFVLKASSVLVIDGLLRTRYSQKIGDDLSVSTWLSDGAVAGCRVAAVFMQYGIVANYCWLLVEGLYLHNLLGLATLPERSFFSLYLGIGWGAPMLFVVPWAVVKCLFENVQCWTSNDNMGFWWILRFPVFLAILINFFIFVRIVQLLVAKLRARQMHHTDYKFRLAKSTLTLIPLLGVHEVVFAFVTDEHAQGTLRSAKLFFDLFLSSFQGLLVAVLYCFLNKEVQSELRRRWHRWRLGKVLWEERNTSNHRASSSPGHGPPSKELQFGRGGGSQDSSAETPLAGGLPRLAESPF

Columns and labels:
Type in all cases: cell-based
GIP receptor = biological target: T1, GIP receptor (Homo sapiens, UniProt P48546); assay: cAMP synthesis functional assay (firefly luciferase reporter in HEK293 cells), GIP receptor; details: relative to the standard (Std.) EC50 of the same run
T1 construct: expressed in transfected cells; host or cells: HEK293
T1 sequence (P48546 22-466): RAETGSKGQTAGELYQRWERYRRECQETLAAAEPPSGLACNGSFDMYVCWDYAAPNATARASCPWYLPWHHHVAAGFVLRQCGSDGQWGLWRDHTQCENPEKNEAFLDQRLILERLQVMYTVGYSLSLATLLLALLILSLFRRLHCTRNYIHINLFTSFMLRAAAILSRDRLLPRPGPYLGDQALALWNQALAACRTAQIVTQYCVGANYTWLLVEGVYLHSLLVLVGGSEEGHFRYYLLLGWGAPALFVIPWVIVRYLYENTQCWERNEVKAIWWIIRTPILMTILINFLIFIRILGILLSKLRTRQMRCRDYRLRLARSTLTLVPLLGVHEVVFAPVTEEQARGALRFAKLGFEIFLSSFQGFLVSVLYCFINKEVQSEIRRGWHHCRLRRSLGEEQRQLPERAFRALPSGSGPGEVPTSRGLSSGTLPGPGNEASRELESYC

[1] = test system: glucagon receptor, GLP-1 receptor or GIP receptor; assay: Agonist profile across receptors assigned from the cAMP reporter assay data; details: assigned from the in vitro EC50 data of Tables 1-4
GLP-1 receptor = biological target: T2, GLP-1 receptor (Homo sapiens, UniProt P43220); assay: cAMP synthesis functional assay (firefly luciferase reporter in HEK293 cells), GLP-1 receptor; details: relative to the standard (Std.) EC50 of the same run
T2 construct: expressed in transfected cells; host or cells: HEK293

glucagon receptor = biological target: T3, glucagon receptor (Homo sapiens, UniProt P47871); assay: cAMP synthesis functional assay (firefly luciferase reporter in HEK293 cells), glucagon receptor; details: relative to the standard (Std.) EC50 of the same run
T3 construct: expressed in transfected cells; host or cells: HEK293

CCCCCCCCCCCCCC(=O)NCCCC[C@H](NC(=O)[C@H](CO)NC(=O)[C@@H]1CCCN1C(=O)[C@@H]1CCCN1C(=O)[C@@H]1CCCN1C(=O)[C@H](C)NC(=O)CNC(=O)[C@H](CO)NC(=O)[C@H](CO)NC(=O)[C@@H]1CCCN1C(=O)CNC(=O)CNC(=O)[C@H](CC(N)=O)NC(=O)[C@H](CCSC)NC(=O)[C@H](CC(C)C)NC(=O)[C@H](Cc1c[nH]c2ccccc12)NC(=O)[C@H](CS)NC(=O)[C@@H](NC(=O)[C@H](Cc1ccccc1)NC(=O)[C@H](CCC(=O)O)NC(=O)[C@H](CCCCN)NC(=O)[C@H](C)NC(=O)[C@H](C)NC(=O)[C@H](CCC(N)=O)NC(=O)[C@H](CCC(=O)O)NC(=O)[C@H](CC(=O)O)NC(=O)[C@H](CC(C)C)NC(=O)[C@H](Cc1ccc(O)cc1)NC(=O)[C@H](CCCCN)NC(=O)[C@H](CO)NC(=O)[C@H](Cc1ccc(O)cc1)NC(=O)[C@H](CC(=O)O)NC(=O)[C@H](CO)NC(=O)[C@@H](NC(=O)[C@H](Cc1ccccc1)NC(=O)[C@@H](NC(=O)CNC(=O)[C@H](CCC(N)=O)NC(=O)C(C)(C)NC(=O)[C@@H](N)Cc1c[nH]cn1)[C@@H](C)O)[C@@H](C)O)[C@@H](C)CC)C(N)=O [mt-345]
GIP Receptor relative activity (GIP receptor): 4.99%
receptor activity profile (glucagon / GLP-1 / GIP agonism) [1]: exhibited activity at the GIP, GLP-1, and glucagon receptors
GLP-1 Receptor relative activity (GLP-1 receptor): 152.78%
Glucagon Receptor relative activity (glucagon receptor): 192.90%
